Results taken from patent US6979436B2, “Opioid metallopeptide compositions and methods” (Palatin Technologies, Inc., priority 1999, dated 2005).

Protein sequences, listed by entry. Tags and fused reporters are not part of them. Lines headed by an entry give the natural chain unless they say otherwise; changes in a name come on top.
UniProt P32300, whole entry: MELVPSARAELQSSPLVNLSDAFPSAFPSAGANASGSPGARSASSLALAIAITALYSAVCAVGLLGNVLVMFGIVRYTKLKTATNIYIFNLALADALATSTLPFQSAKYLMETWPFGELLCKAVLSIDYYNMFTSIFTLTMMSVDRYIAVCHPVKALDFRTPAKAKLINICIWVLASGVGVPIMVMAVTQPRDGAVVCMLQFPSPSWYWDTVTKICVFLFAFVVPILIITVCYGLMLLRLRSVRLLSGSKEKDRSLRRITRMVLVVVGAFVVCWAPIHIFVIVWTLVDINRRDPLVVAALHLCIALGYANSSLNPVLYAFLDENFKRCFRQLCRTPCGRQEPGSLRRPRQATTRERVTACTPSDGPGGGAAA

Target: δ receptors, mouse vas deferens (MVD) (Mus musculus, UniProt P32300)
Experiment: mouse vas deferens (MVD) in vitro functional assay
Details: read-out: In Vitro Functional Assay [ED50 in μM] MVD, rhenium-complexed peptides

Substance: YCGFC [Tyr-Cys-Gly-Phe-Cys-NH2]
- EC50: 1.47 µM
